Earlier results as cited in paper PMC5218887 (Neurochemistry International, 2017).

Protein sequences, listed by entry. Tags and fused reporters are not part of them.
UniProt P32245, whole entry, species assumed: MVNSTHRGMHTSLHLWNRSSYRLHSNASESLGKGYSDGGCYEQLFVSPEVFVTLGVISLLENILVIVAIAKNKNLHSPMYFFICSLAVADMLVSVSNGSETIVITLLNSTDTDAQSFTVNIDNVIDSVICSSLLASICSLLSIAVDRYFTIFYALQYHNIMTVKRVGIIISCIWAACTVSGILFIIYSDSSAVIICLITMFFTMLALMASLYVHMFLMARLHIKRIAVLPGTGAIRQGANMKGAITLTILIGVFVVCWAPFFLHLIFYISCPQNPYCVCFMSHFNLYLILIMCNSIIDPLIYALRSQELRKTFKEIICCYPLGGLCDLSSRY

Target: MC4R (Homo sapiens, UniProt P32245)
Settings: ref Pritchard et al., 2004; cited from earlier work

## γ1-melanocyte stimulating hormone [γ1-MSH]
  activity on the MC4R: did not have activity
